Measurements reported in PubChem BioAssay AID463104 (Sanford-Burnham Center for Chemical Genomics, 2010).
This is a selection; strong and weak results do not stand in their true shares. Some results for these compounds are left out of this collection, so the calls shown say nothing about other tests. The source made the active and inactive calls.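 How the source made its calls: active means versus positive control, 20 µM dose yields 30% or more activation; inactive means the rest.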

Assay: IRE1-XBP1 pathway stimulators – cell-based, CHO-XBP1 luciferase reporter, luminescence, uHTS, primary screen (AID 463104);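 further: 100% = tunicamycin at 10 µg/mL and 0% = DMSO only wells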
Conditions: IRE1-XBP1 UPR activation, at 20 µM, stronger effect = higher value, percent of tunicamycin response, DMSO as zero
Summary of the method: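 Material: CHO cell line with stable XBP1 luciferase reporter; buffer or medium: F12 medium containing 10% fetal bovine serum; compound: single point, 20 µM final compound, 1% DMSO; incubation: 6 h treatment, 37 °C; measured by: glow luminescence from Steady-Glo reagent; evaluation: activation, % of tunicamycin; control set: tunicamycin high, DMSO low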

Row | SMILES | activation
1 | CN(C)C1CCCC1OC(=O)C(O)(c1ccccc1)c1ccccc1 (centres undefined) | inactive: -3.6%
2 | CN(C)c1ccc(C(=O)NCC2(N(C)C)CCCCC2)cc1 | inactive: -3.89%
3 | Cc1ccccc1C(=O)NCC1(N2CCCCC2)CCCCC1 | inactive: 3.28%
4 | COc1ccc(C(=O)NCC2(N(C)C)CCCCC2)cc1 | inactive: 0.78%
5 | O=C(NCC1(N2CCCCC2)CCCCC1)c1cccc(Br)c1 | inactive: -3.49%
6 | Cc1cc(C(=O)NCC2(N3CCCCC3)CCCCC2)ccc1[N+](=O)[O-] | inactive: 1.06%
7 | CCN1CCCC(OC(=O)C2(O)c3ccccc3C=Cc3ccccc32)C1 (centres undefined) | inactive: 0.66%
8 | O=C(NCC1(N2CCCCC2)CCCCC1)c1cc(F)c(F)cc1Cl | inactive: -0.74%
9 | C=CCN1CCN(CCOC(=O)C(O)(c2ccccc2)c2ccccc2)CC1 | inactive: 0.87%
10 | CN1[C@@H]2CC[C@H]1CC(OC(=O)C(O)(c1ccccc1)c1ccccc1)C2 (some centres undefined) | inactive: -4.06%
11 | O=C(NCC1(N2CCCCC2)CCCCC1)c1cc([N+](=O)[O-])ccc1Cl | inactive: -2.67%
12 | Cc1ccc(C(=O)NCC2(N3CCCCC3)CCCCC2)cc1 | inactive: -4.37%
13 | COc1cc(SC)ccc1C(=O)NCC1(N(C)C)CCCCC1 | inactive: -3.35%
14 | CCN(CC)CC(C)C(C)OC(=O)C(O)(c1ccccc1)c1ccccc1 (centres undefined) | inactive: -1.96%
15 | CC(C)N1C(=O)CC2(CCN(CCOC(=O)C(O)(c3ccccc3)c3ccccc3)CC2)C1=O | inactive: 1.83%
16 | O=C(OC1CN2CCC1CC2)C(CO)(c1ccccc1)c1ccccc1 (centres undefined) | inactive: -2.17%
17 | CC(C)Oc1ccc(C(=O)NCC2(N(C)C)CCCCC2)cc1 | inactive: 0.49%
18 | CN(C)c1cccc(C(=O)NCC2(N(C)C)CCCCC2)c1 | inactive: 1.49%
19 | COc1ccc(Br)c(C(=O)NCC2(N3CCCCC3)CCCCC2)c1 | inactive: -3.8%
20 | COc1cc(C(=O)NCC2(N(C)C)CCCCC2)c([N+](=O)[O-])cc1OC | inactive: -2.39%
21 | CN(C)C1(CNC(=O)c2ccc(Br)cc2)CCCCC1 | inactive: 0.08%
22 | O=C(NCC1(N2CCCCC2)CCCCC1)c1cccc(Cl)c1 | inactive: -2.99%
23 | COc1ccc(Cl)cc1C(=O)NCC1(N(C)C)CCCCC1 | inactive: -0.18%
24 | COc1cccc(C(=O)NCC2(N3CCCCC3)CCCCC2)c1 | inactive: -2.44%
